Assay results taken from patent publication US6043366A (priority 1997, dated 2000).

Chains of the proteins cited; added tags and fusions are not shown. Lines headed by an entry give the natural chain unless they say otherwise; changes in a name come on top.
UniProt P35370: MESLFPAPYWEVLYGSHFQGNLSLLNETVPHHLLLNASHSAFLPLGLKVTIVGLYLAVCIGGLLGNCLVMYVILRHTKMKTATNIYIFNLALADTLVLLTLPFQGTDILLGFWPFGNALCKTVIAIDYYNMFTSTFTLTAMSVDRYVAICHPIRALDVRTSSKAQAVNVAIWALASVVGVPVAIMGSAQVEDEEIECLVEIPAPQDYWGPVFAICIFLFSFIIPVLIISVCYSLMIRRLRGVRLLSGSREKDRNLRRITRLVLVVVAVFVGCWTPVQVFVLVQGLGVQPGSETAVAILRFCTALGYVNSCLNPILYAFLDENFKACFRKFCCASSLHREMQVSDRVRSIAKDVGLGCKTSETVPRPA

Target: rat OFQ receptor (LC132) (Rattus norvegicus, UniProt P35370)
Experiment: OFQ-R binding assay ([3H]-OFQ competition)
Conditions: membranes of 293s-OFQ-R cells, IC50 converted to Ki by Cheng and Prusoff

CCCC1CCC(N2CCC3(CC2)C(=O)NCN3c2ccccc2)CC1 (centres unmarked)
affinity to the OFQ-receptor, given as pKi: 8,4

CN1CN(c2ccccc2)C2(CCN(C3CCC4CCCCC4C3)CC2)C1=O (racemic)
affinity to the OFQ-receptor, given as pKi: 9,5
